Sequences of proteins named here, by UniProt entry; tags and fusion partners are left off. A change or cut given only in a name is not applied to a line headed by its entry.
UniProt Q13698: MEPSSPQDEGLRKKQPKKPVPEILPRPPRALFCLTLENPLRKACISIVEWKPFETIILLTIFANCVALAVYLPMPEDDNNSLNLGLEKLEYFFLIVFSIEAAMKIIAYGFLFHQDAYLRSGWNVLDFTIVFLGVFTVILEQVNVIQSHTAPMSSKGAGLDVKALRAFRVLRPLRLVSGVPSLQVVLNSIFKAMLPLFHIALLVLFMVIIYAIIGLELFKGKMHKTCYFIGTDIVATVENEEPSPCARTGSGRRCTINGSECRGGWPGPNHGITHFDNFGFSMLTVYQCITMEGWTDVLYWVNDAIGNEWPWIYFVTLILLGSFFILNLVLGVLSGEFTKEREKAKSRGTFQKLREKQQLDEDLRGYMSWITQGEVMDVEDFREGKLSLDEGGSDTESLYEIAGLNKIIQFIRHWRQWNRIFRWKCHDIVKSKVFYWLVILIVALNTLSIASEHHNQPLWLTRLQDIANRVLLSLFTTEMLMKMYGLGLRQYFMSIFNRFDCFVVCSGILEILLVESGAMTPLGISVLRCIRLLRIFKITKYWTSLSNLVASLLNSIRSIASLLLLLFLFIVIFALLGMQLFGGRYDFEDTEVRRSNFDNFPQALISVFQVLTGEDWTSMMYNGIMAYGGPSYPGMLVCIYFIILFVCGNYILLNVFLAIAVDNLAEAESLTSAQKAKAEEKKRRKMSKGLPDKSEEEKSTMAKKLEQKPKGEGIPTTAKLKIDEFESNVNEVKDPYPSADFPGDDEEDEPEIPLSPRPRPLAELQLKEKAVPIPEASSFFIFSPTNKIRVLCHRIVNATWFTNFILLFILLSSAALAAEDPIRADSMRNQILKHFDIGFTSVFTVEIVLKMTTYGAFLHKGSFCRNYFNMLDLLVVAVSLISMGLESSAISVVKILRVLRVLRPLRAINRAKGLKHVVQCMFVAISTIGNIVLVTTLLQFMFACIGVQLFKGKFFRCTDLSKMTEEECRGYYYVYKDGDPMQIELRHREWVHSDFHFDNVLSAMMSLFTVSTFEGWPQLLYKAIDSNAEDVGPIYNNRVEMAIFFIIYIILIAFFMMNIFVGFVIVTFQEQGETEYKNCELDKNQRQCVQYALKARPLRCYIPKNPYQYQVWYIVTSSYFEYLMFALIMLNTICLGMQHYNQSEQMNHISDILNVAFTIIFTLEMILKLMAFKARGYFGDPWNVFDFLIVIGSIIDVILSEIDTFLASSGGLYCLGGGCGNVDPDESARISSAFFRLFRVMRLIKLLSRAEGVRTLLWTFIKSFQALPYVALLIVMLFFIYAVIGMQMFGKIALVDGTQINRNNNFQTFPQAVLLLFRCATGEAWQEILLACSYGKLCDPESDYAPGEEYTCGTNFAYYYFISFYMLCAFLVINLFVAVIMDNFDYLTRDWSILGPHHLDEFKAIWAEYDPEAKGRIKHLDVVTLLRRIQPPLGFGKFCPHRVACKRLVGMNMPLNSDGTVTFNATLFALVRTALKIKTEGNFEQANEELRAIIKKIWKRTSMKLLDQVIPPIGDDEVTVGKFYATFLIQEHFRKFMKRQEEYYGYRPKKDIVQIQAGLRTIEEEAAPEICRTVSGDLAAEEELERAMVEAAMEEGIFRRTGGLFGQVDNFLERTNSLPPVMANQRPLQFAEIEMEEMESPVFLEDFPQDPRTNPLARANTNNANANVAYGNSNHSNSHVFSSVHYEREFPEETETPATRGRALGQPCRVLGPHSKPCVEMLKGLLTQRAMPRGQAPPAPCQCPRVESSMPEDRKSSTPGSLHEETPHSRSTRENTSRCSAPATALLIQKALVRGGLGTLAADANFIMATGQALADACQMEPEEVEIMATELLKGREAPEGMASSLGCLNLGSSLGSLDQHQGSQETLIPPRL
UniProt Q01668: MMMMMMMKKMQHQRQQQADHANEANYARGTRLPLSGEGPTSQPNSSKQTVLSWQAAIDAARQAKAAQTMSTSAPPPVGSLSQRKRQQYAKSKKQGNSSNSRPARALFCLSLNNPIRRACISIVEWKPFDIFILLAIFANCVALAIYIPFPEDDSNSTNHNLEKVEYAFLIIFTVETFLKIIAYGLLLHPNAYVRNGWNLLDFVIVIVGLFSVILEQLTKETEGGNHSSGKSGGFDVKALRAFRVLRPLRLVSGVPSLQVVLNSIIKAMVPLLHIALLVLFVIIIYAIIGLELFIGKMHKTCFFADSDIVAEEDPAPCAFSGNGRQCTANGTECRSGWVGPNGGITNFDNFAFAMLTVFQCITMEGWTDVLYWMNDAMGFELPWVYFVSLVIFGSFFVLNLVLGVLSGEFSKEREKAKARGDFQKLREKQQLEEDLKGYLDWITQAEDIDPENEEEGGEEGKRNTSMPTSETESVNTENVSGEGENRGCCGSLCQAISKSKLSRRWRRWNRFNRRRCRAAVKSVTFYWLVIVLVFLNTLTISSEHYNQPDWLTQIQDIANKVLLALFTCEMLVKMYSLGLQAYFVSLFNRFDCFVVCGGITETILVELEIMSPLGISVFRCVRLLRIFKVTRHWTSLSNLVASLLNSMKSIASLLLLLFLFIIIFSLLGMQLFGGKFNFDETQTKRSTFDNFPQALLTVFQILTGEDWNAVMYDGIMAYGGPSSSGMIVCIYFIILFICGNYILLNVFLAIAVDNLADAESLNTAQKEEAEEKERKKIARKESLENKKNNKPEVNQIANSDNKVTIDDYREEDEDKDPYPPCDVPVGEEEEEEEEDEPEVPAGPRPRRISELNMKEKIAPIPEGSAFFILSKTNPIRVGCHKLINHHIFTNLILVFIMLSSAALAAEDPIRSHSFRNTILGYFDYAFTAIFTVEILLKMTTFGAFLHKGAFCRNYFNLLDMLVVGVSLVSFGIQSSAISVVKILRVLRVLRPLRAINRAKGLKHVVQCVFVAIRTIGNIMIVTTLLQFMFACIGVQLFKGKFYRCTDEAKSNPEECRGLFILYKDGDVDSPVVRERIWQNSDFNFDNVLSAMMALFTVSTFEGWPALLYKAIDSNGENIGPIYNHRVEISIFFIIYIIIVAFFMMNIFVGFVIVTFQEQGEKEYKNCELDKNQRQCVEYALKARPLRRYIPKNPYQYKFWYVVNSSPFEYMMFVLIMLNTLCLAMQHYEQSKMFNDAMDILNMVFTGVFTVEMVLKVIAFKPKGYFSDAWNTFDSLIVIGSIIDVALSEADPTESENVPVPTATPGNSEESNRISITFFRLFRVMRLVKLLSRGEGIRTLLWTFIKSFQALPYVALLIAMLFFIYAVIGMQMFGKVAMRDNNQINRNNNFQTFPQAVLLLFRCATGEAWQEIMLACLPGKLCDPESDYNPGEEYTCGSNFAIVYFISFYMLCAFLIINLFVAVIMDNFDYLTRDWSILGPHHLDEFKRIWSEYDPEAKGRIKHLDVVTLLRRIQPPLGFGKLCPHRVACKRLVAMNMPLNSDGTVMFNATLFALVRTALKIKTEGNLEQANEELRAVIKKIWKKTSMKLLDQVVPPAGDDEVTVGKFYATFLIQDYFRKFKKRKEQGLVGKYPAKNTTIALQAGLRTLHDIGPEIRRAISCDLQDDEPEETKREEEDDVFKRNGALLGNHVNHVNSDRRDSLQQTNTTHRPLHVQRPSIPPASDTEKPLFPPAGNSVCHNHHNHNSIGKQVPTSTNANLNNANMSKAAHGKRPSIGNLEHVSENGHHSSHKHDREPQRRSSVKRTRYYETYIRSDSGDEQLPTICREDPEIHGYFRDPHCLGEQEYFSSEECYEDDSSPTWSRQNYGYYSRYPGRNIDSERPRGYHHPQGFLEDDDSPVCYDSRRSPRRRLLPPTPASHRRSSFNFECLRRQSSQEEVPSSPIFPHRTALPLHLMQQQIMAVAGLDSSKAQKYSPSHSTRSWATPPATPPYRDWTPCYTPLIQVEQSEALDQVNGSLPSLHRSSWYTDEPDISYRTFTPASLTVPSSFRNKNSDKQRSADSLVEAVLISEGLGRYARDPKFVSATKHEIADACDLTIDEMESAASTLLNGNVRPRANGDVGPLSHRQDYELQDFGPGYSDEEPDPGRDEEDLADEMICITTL
UniProt O60840: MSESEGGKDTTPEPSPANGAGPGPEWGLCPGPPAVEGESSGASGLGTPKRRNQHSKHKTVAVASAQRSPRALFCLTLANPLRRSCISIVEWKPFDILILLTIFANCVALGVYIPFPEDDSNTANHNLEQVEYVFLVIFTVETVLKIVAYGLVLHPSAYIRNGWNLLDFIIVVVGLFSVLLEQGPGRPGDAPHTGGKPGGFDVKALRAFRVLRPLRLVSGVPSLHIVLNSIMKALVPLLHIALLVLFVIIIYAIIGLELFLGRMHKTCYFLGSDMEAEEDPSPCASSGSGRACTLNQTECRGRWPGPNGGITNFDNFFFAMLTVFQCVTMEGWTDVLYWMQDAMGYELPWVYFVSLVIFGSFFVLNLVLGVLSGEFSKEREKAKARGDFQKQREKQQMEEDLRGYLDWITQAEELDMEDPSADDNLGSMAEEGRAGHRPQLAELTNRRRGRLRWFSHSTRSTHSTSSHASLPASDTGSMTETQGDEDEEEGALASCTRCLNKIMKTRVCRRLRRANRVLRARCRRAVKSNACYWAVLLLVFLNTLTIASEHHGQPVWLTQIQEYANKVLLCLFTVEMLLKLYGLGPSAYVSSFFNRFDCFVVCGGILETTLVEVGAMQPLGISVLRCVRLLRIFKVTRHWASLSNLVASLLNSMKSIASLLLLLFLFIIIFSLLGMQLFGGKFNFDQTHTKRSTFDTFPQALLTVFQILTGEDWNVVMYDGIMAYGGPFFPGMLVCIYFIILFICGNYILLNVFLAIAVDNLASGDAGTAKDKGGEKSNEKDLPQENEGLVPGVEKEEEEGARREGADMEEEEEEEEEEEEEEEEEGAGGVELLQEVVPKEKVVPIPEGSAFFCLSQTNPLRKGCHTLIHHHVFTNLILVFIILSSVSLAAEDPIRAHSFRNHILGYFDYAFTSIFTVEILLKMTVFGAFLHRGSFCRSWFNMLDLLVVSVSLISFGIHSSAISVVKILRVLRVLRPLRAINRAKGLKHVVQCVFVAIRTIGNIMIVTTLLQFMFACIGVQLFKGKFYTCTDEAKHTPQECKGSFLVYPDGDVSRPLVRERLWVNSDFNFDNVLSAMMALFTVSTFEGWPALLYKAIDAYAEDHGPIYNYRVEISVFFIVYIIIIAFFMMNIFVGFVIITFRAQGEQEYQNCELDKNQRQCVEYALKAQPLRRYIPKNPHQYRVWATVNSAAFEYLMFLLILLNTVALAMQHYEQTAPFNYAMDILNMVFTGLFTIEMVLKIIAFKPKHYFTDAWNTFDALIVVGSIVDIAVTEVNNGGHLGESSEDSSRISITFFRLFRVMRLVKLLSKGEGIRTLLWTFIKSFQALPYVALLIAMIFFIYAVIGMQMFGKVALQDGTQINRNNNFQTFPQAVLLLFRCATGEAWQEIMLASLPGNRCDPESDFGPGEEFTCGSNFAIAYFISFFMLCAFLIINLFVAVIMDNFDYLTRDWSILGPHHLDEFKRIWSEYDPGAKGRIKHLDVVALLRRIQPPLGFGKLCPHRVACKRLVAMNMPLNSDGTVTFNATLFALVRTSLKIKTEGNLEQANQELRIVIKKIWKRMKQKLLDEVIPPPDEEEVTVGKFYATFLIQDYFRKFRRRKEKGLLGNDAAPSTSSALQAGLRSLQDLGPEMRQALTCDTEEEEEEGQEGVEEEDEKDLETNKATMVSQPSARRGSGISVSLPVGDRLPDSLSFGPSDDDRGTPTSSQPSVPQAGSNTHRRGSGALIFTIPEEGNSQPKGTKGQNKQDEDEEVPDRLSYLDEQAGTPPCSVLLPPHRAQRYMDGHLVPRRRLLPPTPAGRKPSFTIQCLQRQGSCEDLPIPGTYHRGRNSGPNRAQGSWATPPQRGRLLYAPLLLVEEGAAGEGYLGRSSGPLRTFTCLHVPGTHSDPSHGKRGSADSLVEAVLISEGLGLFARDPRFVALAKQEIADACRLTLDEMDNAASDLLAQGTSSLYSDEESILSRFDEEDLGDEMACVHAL

In ChEMBL document CHEMBL3436045 (Sci Rep, 2013):

Target: Voltage-gated L-type calcium channel (Homo sapiens, UniProt Q13936+Q13698+Q01668+O60840)
Experiment: Inhibition of Cav1.2 current measured using QPatch automatic path clamp system in CHO cells expressing Cav1.2, beta-2 and alpha-2/delta-1 subunits
Type: functional, cell-based, Cricetulus griseus
Set-up: ca sol conc 1.8 mM, temp Ambient

Compound: Cc1nc(Nc2ncc(C(=O)Nc3c(C)cccc3Cl)s2)cc(N2CCN(CCO)CC2)n1.O [DASATINIB]
- IC50: 81.1 µM
